## Antibody variant affinities, Ab-91 heavy chain, assay 2

From the AlphaSeq antibody data of Engelhart et al. 2022 (doi:10.1038/s41597-022-01779-4), copy in the FLAb collection.

All variants were tested on one target, the spike HR2 peptide PDVDLGDISGINAS (SARS-CoV-2).

Ab-91 is the parent antibody, in scFv form: VL, then the linker GGGGSGGGGSGGGGS, then VH. The light chain is unchanged in all variants.
VL: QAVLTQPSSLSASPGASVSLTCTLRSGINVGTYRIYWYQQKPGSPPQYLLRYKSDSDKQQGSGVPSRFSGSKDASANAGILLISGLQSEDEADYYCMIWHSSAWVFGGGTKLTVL
VH: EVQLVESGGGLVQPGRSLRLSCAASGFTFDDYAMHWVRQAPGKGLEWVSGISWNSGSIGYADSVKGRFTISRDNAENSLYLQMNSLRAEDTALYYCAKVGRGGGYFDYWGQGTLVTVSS

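The starting antibody came from a phage panning campaign against this peptide. In library AAYL51, one, two or three CDR residues were substituted; doubles and triples were drawn at random. The scFvs were displayed on barcoded MATa yeast, the peptide on MATalpha yeast. The frequency of each diploid, read from paired DNA barcodes, reflects how well the two displayed proteins bind. Read counts were normalised to the haploid input and turned into Kd by a linear fit to BCL2-family pairs of known affinity, for each replicate. Mating was done three times.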

Variants are written as CDR1, CDR2 and CDR3 of the heavy chain (limits as in the source). Parent: GFTFDDYAMH, GISWNSGSIGYADSVK, VGRGGGYFDY. Values are log10 of the apparent Kd in nM; lower means stronger binding. An entry "nd" has no value in the source: the pair was not observed among the diploids in that replicate. This suggests poor binding but is not conclusive. In this assay the parent's reference entry averaged 1.86; its copy inside this library read 0.88.

The variant GFTFDDYAMR, GISWNDGSIGYADYVK, VGRGGGYFDY gave 4.55, 5.48, nd (controls 5 of 9).
The variant GFTFDDYAMH, GISWNSGSQGYADSVR, AGRGGGYFDY gave 3.97, nd, nd (controls 2 of 9).
The variant GFTFDDYVMH, GISWNSGSIGFADSVK, VGRGGGYFDY gave nd, 3.39, nd (controls 0 of 9).
The variant GFTFDDYAMH, GISWNSDSIGYADTVK, VGRGGGYFDY gave 4.70, nd, 5.68 (controls 5 of 9).
The variant GFTFADYAMH, GISWNSSSIGYHDSVK, VGRGGGYFDY gave 2.43, 1.98, 1.31 (controls 0 of 9).
The variant GFTFDDYAMH, GESINSGSIGYADKVK, VGRGGGYFDY gave nd, 4.61, 5.17 (controls 2 of 9).
The variant GFTFNDYAMH, GISWNSGSIGIADSVK, VGRGQGYFDY gave nd, nd, nd (controls 0 of 9).
The variant IFTFDDYAMH, GISWNSGSIGYAASVK, EGRGGGYFDY gave nd, nd, nd (controls 2 of 9).
The variant GFTFDDYAMH, GINWNSGSIGYADSVK, VGDGIGYFDY gave nd, 4.24, nd (controls 0 of 9).
The variant GFTFDDYAMH, GISWNSGSIGYADSVK, DGRGGGYFMY gave nd, 4.81, nd (controls 2 of 9).
The variant GFIFDDYAMQ, GISWNSGSIGYANSVK, VGRGGGYFDY gave nd, nd, nd (controls 0 of 9).
The variant GNTVDDYAMH, GPSWNSGSIGYADSVK, VGRGGGYFDY gave nd, nd, nd (controls 2 of 9).
The variant GFTFDHYAMH, GISWNSGSIFYADIVK, VGRGGGYFDY gave nd, nd, nd (controls 1 of 9).
The variant GFTFDDYAMH, QISWNSGSIGYADSLK, VGRGGGYRDY gave nd, nd, nd (controls 0 of 9).
The variant GFTFDDYAMH, GISINSGSIGYADDVK, VGRKGGYFDY gave 3.75, 3.89, 4.08 (controls 9 of 9).
The variant NFTFDDYAMH, GISWNKGSIGYADSVK, VGRGGGYKDY gave nd, nd, nd (controls 0 of 9).
The variant GFTFDDYAMH, GIMWNSGSEGYADSVK, RGRGGGYFDY gave nd, nd, nd (controls 1 of 9).
The variant GFTFDDYAMH, GISWNSGSHGYADSVF, VGRGGGYFDD gave nd, nd, nd (controls 2 of 9).
The variant GFTFDTYAMH, GIVFNSGSIGYADSVK, VGRGGGYFDY gave 4.45, nd, nd (controls 3 of 9).
The variant GATFDDYAMH, GISWNSGSIGESDSVK, VGRGGGYFDY gave nd, nd, nd (controls 1 of 9).
The variant GFTFDDQAMH, GISWNSGSIGNADSVK, VGRKGGYFDY gave 5.23, nd, nd (controls 2 of 9).
The variant FFTFDDYAMH, AISSNSGSIGYADSVK, VGRGGGYFDY gave nd, 4.36, 4.58 (controls 2 of 9).
The variant WFTFDDYAMH, GTSWNSGSIGYADSVK, VGRGGGYFYY gave nd, nd, 4.04 (controls 1 of 9).
The variant RFTFDDYAMH, GISWNSGSIGYADSQK, VGRGGGYFDY gave nd, nd, nd (controls 0 of 9).
The variant GFTFDDYAMH, GISWNSGSTGYADSDA, VGRGGGYFDY gave nd, nd, nd (controls 2 of 9).
The variant GFTFDDYAMH, GISHNSGSIGYADSVK, HGRGGGYFDY gave nd, nd, nd (controls 1 of 9).
The variant HVTFDDYAMH, GISWNSGSIGYADSVR, VGRGGGYFDY gave 0.84, 0.84, 0.27 (controls 6 of 9).
The variant GFTFDDYAMH, GNSWWSGRIGYADSVK, VGRGGGYFDY gave 5.41, 5.43, nd (controls 1 of 9).
The variant GFTFDDTAME, GISWNSGSIGYADSVK, VGRGGGYFLY gave 1.29, 1.07, 0.67 (controls 2 of 9).
The variant GFTVDDYAMH, TISWNSGSIGYADSKK, VGRGGGYFDY gave nd, nd, 3.87 (controls 2 of 9).
The variant GFTFDDVKMH, GISWNSGSIGYADSVK, PGRGGGYFDY gave nd, nd, 4.03 (controls 2 of 9).
The variant GFTCDDYAMH, GISWNSGSISYADIVK, VGRGGGYFDY gave nd, nd, 4.06 (controls 1 of 9).
The variant GFTQDDYAMH, GISWNSGSIEYADSVK, VGRGGGNFDY gave nd, nd, nd (controls 0 of 9).
The variant GFTFDDYAMH, GIIWNSGSIGYADSVK, VGRGGRYFDY gave nd, nd, nd (controls 0 of 9).
The variant LFTFDDYPMH, GMSWNSGSIGYADSVK, VGRGGGYFDY gave 1.16, 1.50, 1.08 (controls 1 of 9).
The variant GTTFIDYAMH, GISWNSGSIGYADSVK, VGRGGGPFDY gave 5.31, 5.28, nd (controls 1 of 9).
The variant GFTFDDYAMH, GISWNSGSIGYADSQK, VGRGGGYFDY gave 3.82, 3.15, nd (controls 1 of 9).
The variant GFTFDDYAMH, GISWNSGSIGLADSMK, VGRGGGYFDY gave 4.46, 4.33, 4.75 (controls 2 of 9).
The variant GFTFDDYAMH, GDSWNSGSIGYADSVK, VGRGGGYFDY gave nd, nd, nd (controls 2 of 9).
The variant GFTFDDYAMH, GISWNSGMIGYADSVK, MGRGGGHFDY gave 3.67, nd, nd (controls 0 of 9).
The variant PFTFDDYAMH, GISWNSGSYGYADSVK, VGRGGGSFDY gave nd, nd, nd (controls 0 of 9).

Again, the first 2 entries without any signal:

| CDR-H1 | CDR-H2 | CDR-H3 | replicates, log10 nM | control signals |
|---|---|---|---|---|
| GFTFNDYAMH | GISWNSGSIGIADSVK | VGRGQGYFDY | nd, nd, nd | 0/9 |
| IFTFDDYAMH | GISWNSGSIGYAASVK | EGRGGGYFDY | nd, nd, nd | 2/9 |

Three control strains display no target. For library AAYL51, 21% of the pairings with them gave a signal, with a median of 4.54 and one signal in twenty below 3.26, so weak values seen in few replicates may be background. For each scFv, signals with the empty controls are counted beside the result.